Data taken from patent publication US4684624A (priority 1985, dated 1987).

System: acute focal cerebral ischemia (MCA occlusion)

Question: With `CO[C@]12CC[C@@]3(C[C@@H]1C(C)(C)O)[C@H]1Cc4ccc(O)c5c4[C@@]3(CCN1CC1CC1)[C@H]2O5` as the compound, how does the “effect in prolonging survival” value (cats after MCA occlusion, in words) read?
Answer: little effect in prolonging survival

Question: What about the “mortality, 24-28 hours” value (cats dying 24-28 hours after MCA occlusion, i.p. dose 6 h after occlusion, then osmotic pump infusion) of the same compound?
Answer: 8%

Question: What about the “mortality, 48-72 hours” value (cats dying 48-72 hours after MCA occlusion, i.p. dose 6 h after occlusion, then osmotic pump infusion) of the same compound?
Answer: 8%

Question: And the “mortality, less than 24 hours” value (cats dying less than 24 hours after MCA occlusion, i.p. dose 6 h after occlusion, then osmotic pump infusion)?
Answer: 84%

Question: And the “lived up to 7 days” value (cats surviving to 7 days after MCA occlusion, i.p. dose 6 h after occlusion, then osmotic pump infusion)?
Answer: 0%
